# Measurements as given in patent US6825390B1, “Stabilization and use of propargyl bromide” (priority 2002, dated 2004).
# Assay: Sensitivity to detonative shock confined in a heavy steel tube, pentolite booster, witness plate (Example 10)
structure (smiles),measurement,setting,value
C#CCBr,Observations: Witness Plate,"detonative shock, confined in heavy steel tube, pentolite booster initiated by blasting cap",No damage
same,Results,positive if a hole is punched through the witness plate and/or the steel cylinder is fragmented entirely,no
